# Laboratory results published in PubChem BioAssay AID1986 (Sanford-Burnham Center for Chemical Genomics, 2009).
# The list shows a part of the results, in another mix than the full data. Some of these compounds have results that are not shown, active ones among them. Active and inactive are the calls of the source. Rule as the data show it: active = inhibition mostly above about 52% (no sharp cut-off); inactive = mostly below about 76%.
# Experiment: cell-free HIV fusion peptide-binding blockers – biochemical, uHTS, fluorescence dequenching, primary screen (AID 1986)
# Details: HIV Env-mediated cell-cell fusion, fluorescence reporter; at 20 µM; hits give high values
row,Structure (SMILES),inhibition
1,Cc1ccc(C(=O)NCC2(N3CCCCC3)CCCCC2)cc1,inactive: 0.1%
2,CC(C)N1C(=O)CC2(CCN(CCOC(=O)C(O)(c3ccccc3)c3ccccc3)CC2)C1=O,inactive: -0.9%
3,CCN(CC)CC(C)C(C)OC(=O)C(O)(c1ccccc1)c1ccccc1 (centres undefined),inactive: -0.7%
4,COc1cc(SC)ccc1C(=O)NCC1(N(C)C)CCCCC1,inactive: 0%
5,CN1[C@@H]2CC[C@H]1CC(OC(=O)C(O)(c1ccccc1)c1ccccc1)C2 (some centres undefined),inactive: 1%
6,O=C(NCC1(N2CCCCC2)CCCCC1)c1cc([N+](=O)[O-])ccc1Cl,inactive: -2.3%
7,CCN1CCCC(OC(=O)C2(O)c3ccccc3C=Cc3ccccc32)C1 (centres undefined),inactive: 0%
8,Cc1cc(C(=O)NCC2(N3CCCCC3)CCCCC2)ccc1[N+](=O)[O-],inactive: -0.3%
9,O=C(NCC1(N2CCCCC2)CCCCC1)c1cccc(Br)c1,inactive: 1.1%
10,COc1ccc(C(=O)NCC2(N(C)C)CCCCC2)cc1,inactive: -2.7%
11,C=CCN1CCN(CCOC(=O)C(O)(c2ccccc2)c2ccccc2)CC1,inactive: 0.2%
12,O=C(NCC1(N2CCCCC2)CCCCC1)c1cc(F)c(F)cc1Cl,inactive: 0.4%
13,Cc1ccccc1C(=O)NCC1(N2CCCCC2)CCCCC1,inactive: 2.9%
14,CN(C)c1ccc(C(=O)NCC2(N(C)C)CCCCC2)cc1,inactive: 0.6%
15,CN(C)C1CCCC1OC(=O)C(O)(c1ccccc1)c1ccccc1 (centres undefined),inactive: 1%
16,O=C(NCC1(N2CCCCC2)CCCCC1)c1cccc(Cl)c1,inactive: -0.3%
17,COc1cccc(C(=O)NCC2(N3CCCCC3)CCCCC2)c1,inactive: -1.3%
18,COc1ccc(Cl)cc1C(=O)NCC1(N(C)C)CCCCC1,inactive: 0.4%
19,COc1cc(C(=O)NCC2(N(C)C)CCCCC2)c([N+](=O)[O-])cc1OC,inactive: -1.4%
20,CN(C)C1(CNC(=O)c2ccc(Br)cc2)CCCCC1,inactive: -1.5%
21,CN(C)c1cccc(C(=O)NCC2(N(C)C)CCCCC2)c1,inactive: -2.2%
22,CC(C)Oc1ccc(C(=O)NCC2(N(C)C)CCCCC2)cc1,inactive: -1.8%
23,COc1ccc(Br)c(C(=O)NCC2(N3CCCCC3)CCCCC2)c1,inactive: 3.7%
24,O=C(OC1CN2CCC1CC2)C(CO)(c1ccccc1)c1ccccc1 (centres undefined),inactive: 1.8%
